Assay results published in PubChem BioAssay AID1969 (National Center for Advancing Translational Sciences (NCATS), 2009).
This is a selection; strong and weak results do not stand in their true shares. Activity calls are given as the source filed them. The call rests on the fitted dose curve; in most records, active means well fitted inhibition curve with a large enough effect; inconclusive means small, poorly fitted or top-dose-only effect; inactive means flat fitted curve, though single readings scatter.

By UniProt entry, the sequences of proteins in these tests, tags left out. Where a name states a change or a piece, a line headed by the entry shows the natural chain unless it says otherwise.
UniProt Q9HAZ1: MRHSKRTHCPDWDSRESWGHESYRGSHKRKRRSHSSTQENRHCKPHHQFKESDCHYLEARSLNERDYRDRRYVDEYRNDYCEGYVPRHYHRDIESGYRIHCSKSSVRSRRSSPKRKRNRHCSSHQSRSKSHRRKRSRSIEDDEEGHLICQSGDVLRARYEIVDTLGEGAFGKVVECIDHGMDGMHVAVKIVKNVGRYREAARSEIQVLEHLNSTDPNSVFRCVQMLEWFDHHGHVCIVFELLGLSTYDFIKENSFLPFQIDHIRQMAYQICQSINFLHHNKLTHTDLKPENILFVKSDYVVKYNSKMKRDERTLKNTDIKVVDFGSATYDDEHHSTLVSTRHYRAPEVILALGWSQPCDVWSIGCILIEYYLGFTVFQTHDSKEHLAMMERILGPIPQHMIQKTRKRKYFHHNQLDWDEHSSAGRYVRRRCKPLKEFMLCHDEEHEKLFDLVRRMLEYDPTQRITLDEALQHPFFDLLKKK

target: Dual specificity protein kinase CLK4 (Homo sapiens) (UniProt Q9HAZ1); assay: Confirmaiton Assay for Inhibitors of CDC-like Kinase 4 (ADP-Glo Assay); details: recombinant Clk4, RS peptide, ADP-Glo luminescence
Experimental: NIH Molecular Libraries Probe Production Centers Network [MLPCN] NIH Chemical Genomics Center [NCGC] MLPCN Grant: 1R03MH084827-01 Assay Submitter (PI): Tom Misteli NCGC Assay Overview: Clk4 (Invitrogen, cat# PV3839) was assayed using ATP and the RS repeat peptide (AnaSpec cat # 61722) as substrates. In the assay, the ADP levels were detected using Promega ADP-Glo technology wherein the remaining ATP from the kinase reaction is first depleted with an ATPase reagent followed by a reagent that contains and enzyme which converts the ADP produced to ATP as well as Ultra-Glo luciferase and D-luciferin which generates a bioluminescence signal from the ATP. The positive control for the assay was TG003 (Sigma-Aldrich, cat# 300801-52-9) which has been described as an inhibitor of Clk 4[1].
NCGC Assay Protocol Summary: Two uL/well of substrate-buffer solution (100 uM RS peptide, 1 uM ATP, 1x ADP-Glo Buffer A, 2 mM MgCl2, 0.5 mM EGTA, 2.5 mM DTT, 0.01% Triton X-100, final concentrations) was dispensed into 1536-well plates (Greiner, solid white, medium binding assay plates) with the Aurora Discovery BioRAPTR Flying Reagent Dispenser (FRD; Beckton-Dickenson). […] Luminescence was detected after 30 min room temperature incubation with the Perkin Elmer Viewlux.

SMILES	Potency
c1csc(CNc2ncnc3ccc(-c4ccc5c(c4)OCCO5)cc23)c1	active: 141 nM
